According to doi:10.1101/2022.08.27.505235v1:

System: O=[N+]([O-])c1ccc(O[C@@H]2O[C@H](CO)[C@@H](O)[C@H](O)[C@H]2O)cc1
Experiment: purified protein
Settings: 50 mM potassium phosphate, pH 7, 49 °C, no added glucose

Q: “β-glucosidase (H0HC94) (Agrobacterium tumefaciens A6; Q327A)” was tested. Which Km did it give?
A: 2100 ± 100 µM

Q: What about the kcat of the same substance?
A: 276.6 ± 2.3 s⁻¹
